How the values were obtained:
[1] = mouse, in vivo, po
[2] = system: locally advanced rectal cancer; conditions: with increased normal tissue complications; cited from earlier work

| Compound | myelosuppression [1] | effect on pCR rate when added during pre-operative RT+FP [2] |
| --- | --- | --- |
| O=c1ncc(I)cn1[C@H]1C[C@H](O)[C@@H](CO)O1 [IPdR] | no myelosuppression | – |
| cetuximab: humanized monoclonal antibody targeting the epidermal growth factor receptor | – | without any improvement in pCR rate |

Reference: patent US11058702B2 (EMEK, Inc., priority 2014, dated 2021)
